Results reported in patent EP4825857A1, “TRICYCLIC FUSED HETEROCYCLIC PDE3/4 DUAL INHIBITOR, AND PREPARATION AND USE THEREFOR” (dated 2026).
Values joined by “and” are separate entries in the source; they are usually repeats but may differ in a detail not shown here. Equal entries are not always repeated.

By UniProt entry, the sequences of proteins in these tests, tags left out. Chains listed by the source or under a name are the forms on record and can include a tag or linker. Residues count along the entry.
UniProt Q13370, whole entry: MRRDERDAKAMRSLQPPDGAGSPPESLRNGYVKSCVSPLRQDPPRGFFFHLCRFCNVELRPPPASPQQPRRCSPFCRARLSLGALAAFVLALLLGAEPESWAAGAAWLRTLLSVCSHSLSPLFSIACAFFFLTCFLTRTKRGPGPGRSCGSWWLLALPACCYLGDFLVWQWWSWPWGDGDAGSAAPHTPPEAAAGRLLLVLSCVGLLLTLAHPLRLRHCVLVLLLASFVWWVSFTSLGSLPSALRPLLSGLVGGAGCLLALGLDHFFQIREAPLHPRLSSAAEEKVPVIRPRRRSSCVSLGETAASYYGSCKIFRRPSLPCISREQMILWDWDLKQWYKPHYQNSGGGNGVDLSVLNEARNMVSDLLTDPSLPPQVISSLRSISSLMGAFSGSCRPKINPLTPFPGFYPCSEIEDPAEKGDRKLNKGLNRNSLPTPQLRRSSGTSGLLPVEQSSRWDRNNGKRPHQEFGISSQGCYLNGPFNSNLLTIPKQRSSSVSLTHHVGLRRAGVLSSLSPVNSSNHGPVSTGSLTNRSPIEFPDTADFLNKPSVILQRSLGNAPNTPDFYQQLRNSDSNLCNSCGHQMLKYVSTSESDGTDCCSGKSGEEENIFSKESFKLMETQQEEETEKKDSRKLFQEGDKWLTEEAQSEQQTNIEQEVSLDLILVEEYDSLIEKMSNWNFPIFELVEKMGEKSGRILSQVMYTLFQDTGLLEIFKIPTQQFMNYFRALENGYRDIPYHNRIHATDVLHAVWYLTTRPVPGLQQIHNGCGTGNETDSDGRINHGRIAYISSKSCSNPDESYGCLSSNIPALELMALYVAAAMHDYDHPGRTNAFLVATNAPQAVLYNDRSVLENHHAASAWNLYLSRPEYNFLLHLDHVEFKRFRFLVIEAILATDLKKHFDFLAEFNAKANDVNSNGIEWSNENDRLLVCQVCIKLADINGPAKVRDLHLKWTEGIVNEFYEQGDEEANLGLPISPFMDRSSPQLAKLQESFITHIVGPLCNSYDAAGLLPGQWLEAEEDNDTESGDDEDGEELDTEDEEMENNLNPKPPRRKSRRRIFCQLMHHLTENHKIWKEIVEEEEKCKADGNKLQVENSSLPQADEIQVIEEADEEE
UniProt Q08499, 303-809 limits assumed: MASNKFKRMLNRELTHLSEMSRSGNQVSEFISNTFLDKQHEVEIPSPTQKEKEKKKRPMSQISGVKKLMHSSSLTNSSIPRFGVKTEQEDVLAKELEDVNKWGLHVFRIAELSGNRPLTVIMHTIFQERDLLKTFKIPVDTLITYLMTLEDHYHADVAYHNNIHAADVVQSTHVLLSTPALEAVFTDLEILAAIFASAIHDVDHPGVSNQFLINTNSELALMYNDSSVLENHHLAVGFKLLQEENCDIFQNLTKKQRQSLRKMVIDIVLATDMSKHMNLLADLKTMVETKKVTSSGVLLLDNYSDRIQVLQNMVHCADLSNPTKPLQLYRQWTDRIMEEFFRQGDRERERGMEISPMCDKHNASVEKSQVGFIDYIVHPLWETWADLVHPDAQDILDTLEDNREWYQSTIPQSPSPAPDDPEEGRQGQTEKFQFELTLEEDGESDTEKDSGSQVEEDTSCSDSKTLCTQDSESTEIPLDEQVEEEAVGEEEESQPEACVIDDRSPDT
UniProt Q08499, 1-673 with tags or gaps: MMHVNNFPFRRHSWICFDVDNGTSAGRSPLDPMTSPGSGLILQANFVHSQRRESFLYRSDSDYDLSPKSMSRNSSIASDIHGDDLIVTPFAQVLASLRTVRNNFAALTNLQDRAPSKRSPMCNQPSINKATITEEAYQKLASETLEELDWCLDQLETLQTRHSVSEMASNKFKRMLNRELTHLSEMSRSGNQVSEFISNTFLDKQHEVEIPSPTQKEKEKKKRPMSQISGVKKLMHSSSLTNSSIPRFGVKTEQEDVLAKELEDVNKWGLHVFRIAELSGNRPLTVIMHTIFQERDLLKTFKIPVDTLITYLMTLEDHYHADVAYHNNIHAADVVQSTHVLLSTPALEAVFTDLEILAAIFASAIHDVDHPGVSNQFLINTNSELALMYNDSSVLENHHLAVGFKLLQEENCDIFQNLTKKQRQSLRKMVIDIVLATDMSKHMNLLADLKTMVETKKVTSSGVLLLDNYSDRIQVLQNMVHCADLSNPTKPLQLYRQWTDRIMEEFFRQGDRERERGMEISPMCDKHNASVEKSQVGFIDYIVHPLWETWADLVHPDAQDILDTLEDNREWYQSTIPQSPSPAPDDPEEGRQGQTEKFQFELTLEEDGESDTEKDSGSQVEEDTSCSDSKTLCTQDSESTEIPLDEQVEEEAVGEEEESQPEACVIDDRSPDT
UniProt Q07343, 1-564 with tags or gaps: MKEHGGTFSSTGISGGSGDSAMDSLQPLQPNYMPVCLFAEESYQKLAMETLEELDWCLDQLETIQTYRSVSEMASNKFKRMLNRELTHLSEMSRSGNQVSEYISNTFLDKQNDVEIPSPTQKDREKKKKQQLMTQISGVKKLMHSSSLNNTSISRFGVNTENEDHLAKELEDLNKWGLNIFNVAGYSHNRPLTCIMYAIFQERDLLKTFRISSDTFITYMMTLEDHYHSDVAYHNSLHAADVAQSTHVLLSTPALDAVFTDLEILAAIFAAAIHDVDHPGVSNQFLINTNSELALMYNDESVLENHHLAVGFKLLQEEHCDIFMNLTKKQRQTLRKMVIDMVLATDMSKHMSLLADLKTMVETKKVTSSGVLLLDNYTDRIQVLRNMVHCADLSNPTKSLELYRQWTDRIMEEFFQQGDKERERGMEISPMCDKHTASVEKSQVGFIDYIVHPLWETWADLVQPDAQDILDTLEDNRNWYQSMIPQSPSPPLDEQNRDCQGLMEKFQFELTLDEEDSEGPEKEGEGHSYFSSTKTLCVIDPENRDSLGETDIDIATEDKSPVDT
UniProt Q07343, whole entry: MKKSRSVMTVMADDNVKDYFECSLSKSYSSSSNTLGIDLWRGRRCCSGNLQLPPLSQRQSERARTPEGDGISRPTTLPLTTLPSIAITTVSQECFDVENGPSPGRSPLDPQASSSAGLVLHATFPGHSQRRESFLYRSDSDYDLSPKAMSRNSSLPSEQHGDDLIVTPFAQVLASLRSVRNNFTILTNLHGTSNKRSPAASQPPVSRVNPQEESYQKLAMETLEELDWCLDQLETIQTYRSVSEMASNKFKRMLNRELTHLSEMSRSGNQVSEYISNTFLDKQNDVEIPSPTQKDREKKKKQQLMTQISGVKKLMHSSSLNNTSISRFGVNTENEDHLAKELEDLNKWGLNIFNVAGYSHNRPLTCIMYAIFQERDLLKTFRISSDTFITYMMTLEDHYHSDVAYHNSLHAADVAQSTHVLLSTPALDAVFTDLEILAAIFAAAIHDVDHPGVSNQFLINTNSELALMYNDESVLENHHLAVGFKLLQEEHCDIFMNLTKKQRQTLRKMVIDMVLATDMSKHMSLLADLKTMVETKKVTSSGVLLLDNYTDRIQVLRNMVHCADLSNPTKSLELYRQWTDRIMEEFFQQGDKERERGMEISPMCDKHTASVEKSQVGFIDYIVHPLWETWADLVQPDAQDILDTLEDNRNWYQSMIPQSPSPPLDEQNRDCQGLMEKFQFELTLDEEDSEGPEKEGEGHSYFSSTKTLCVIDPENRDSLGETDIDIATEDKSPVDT
UniProt Q14432, whole entry: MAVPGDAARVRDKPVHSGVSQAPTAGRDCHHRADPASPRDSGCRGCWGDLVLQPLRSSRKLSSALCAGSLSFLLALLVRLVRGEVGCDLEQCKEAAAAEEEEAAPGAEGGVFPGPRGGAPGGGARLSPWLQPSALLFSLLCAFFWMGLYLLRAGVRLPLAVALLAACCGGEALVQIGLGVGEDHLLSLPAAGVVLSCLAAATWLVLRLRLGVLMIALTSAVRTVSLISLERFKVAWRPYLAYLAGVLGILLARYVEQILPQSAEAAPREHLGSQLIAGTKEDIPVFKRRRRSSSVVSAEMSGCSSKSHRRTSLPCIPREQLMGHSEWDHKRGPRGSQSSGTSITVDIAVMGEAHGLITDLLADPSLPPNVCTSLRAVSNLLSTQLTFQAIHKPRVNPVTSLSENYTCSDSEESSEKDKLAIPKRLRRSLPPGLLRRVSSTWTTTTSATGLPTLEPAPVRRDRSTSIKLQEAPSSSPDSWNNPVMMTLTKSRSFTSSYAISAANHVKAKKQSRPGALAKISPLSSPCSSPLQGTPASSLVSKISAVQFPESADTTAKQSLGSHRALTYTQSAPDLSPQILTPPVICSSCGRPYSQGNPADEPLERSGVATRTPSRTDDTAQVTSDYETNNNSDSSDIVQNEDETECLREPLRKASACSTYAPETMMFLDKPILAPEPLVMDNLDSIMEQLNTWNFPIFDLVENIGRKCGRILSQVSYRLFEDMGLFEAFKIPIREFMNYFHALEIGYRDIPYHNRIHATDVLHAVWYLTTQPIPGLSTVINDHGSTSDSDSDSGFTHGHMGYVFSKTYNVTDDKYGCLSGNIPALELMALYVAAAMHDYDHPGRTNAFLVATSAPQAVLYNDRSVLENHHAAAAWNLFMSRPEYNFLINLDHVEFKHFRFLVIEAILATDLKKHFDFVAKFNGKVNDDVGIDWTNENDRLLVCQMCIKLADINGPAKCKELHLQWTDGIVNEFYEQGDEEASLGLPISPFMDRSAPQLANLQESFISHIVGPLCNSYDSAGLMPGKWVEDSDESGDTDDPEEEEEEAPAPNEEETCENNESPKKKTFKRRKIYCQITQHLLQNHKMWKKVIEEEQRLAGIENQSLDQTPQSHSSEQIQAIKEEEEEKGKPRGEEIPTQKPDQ
UniProt Q14123, whole entry: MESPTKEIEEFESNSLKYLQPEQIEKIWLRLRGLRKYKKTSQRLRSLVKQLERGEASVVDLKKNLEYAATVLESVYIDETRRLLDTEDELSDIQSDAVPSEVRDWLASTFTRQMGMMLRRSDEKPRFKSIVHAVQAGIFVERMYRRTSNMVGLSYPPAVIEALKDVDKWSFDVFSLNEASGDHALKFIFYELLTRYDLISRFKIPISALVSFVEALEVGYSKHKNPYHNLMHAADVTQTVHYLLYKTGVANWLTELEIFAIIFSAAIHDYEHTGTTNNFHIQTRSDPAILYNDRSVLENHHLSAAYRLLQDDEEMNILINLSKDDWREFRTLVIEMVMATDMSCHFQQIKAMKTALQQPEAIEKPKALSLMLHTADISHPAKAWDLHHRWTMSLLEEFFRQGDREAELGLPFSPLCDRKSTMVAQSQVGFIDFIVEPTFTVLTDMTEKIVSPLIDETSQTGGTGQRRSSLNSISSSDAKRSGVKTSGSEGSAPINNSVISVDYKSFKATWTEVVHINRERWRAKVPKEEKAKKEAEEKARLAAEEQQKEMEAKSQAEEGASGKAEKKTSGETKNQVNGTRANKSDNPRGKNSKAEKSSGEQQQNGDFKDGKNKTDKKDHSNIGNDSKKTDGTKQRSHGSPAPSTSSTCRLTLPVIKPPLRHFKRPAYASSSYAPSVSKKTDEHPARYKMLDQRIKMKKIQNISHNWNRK
UniProt Q08493, whole entry: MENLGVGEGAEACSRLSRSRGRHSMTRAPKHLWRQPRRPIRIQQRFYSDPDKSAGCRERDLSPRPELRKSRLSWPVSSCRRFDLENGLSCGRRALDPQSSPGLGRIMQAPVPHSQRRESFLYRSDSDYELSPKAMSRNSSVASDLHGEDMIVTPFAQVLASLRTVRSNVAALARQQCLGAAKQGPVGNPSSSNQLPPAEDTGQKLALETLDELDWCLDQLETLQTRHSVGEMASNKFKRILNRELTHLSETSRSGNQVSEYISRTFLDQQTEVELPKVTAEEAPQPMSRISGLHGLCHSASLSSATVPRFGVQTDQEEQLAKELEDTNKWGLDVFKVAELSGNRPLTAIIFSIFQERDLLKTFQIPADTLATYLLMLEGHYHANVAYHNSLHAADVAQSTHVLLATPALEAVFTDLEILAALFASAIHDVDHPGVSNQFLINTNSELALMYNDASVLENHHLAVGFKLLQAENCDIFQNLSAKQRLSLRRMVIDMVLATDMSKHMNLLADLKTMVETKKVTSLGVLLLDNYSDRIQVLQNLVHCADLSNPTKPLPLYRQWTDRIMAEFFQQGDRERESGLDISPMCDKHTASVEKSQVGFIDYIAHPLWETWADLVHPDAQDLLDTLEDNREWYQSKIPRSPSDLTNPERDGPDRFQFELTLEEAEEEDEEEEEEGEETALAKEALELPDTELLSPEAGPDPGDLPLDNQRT

Tests used:
[1] = biological target: PDE3B (Homo sapiens, UniProt Q13370); assay: PDE enzyme activity inhibition assay (fluorescence polarization, IMAP); details: read-out: PDE3B; FP assay, Table 4
Experimental: (§1) The inhibitory activity of the compounds of the Examples against PDE enzymes was evaluated using a fluorescence polarization (FP) assay. RPL-554, the compound disclosed in Example 1 of CN100415743C, was used as the positive control. [drawing 182]
(§2) In a reaction buffer, i.e., 1× IMAP Reaction Buffer containing 0.1% BSA and supplemented with 1 mM DTT, a PDE enzyme solution and a substrate solution (FAM-cyclic AMP/cyclic AMP) were prepared. The positive control was prepared at an initial concentration of 1/10 µM for the PDE assay and was diluted 3-fold, with a 10+0 dose design. Using the acoustic liquid handling technology (Echo 655), 0.05 µL of each compound in 100% DMSO was transferred into a 384-well plate (Corning 4514), followed by centrifugation at 1,000 rpm for 1 min. Then, 2.5 µL of the PDE enzyme solution was transferred into the 384-well reaction plate, followed by centrifugation at 1,000 rpm for 1 min and incubation at 25 °C for 10 min. Subsequently, 2.5 µL of the substrate solution was transferred into the 384-well reaction plate, followed by centrifugation at 1,000 rpm for 1 min and incubation at 25 °C for 60 min. Then, 15 µL of a binding reagent mixture was transferred into the 384-well reaction plate, followed by centrifugation at 1,000 rpm for 1 min and incubation at 25 °C for 60 min. Finally, the FP signal was measured using a BMG PHERAstar FSX plate reader. IC50 values and nonlinear regression curve fitting were obtained using GraphPad Prism software.
(§3) The inhibitory activities of the compounds against PDE enzymes were evaluated using the FP method, with RPL-554 and compound D7 as control compounds. The detailed test method was the same as that described in PDE Enzyme Activity Inhibition Assay I. The structural formulae of RPL-554 and compound D7 are shown below. [drawing 183]

[2] = biological target: PDE4D2 (Homo sapiens, UniProt Q08499); assay: as above; details: read-out: PDE4D2; FP assay, Table 4
Experimental: as §1, §2, §3

[3] = biological target: PDE4B2 (Homo sapiens, UniProt Q07343); assay: as above; details: read-out: PDE4B2; FP assay, Table 4
Experimental: as §1, §2, §3

[4] = biological target: PDE3A (Homo sapiens, UniProt Q14432); assay: as above; details: read-out: PDE3A; FP assay, Table 4
Experimental: as §1, §2, §3

[5] = system: Nebulized Acetylcholine-Induced Airway Constriction in Mice; assay: Nebulized acetylcholine-induced airway constriction in mice (airway resistance RL)
Experimental: Preparation of test compound: the test compounds were weighed as pure compounds without considering impurities due to the high purity of the test compounds. The test compound was prepared at a concentration of 10 mg/mL, using a pH 3.2 citric acid-disodium hydrogen phosphate buffer containing 25% DMSO as the solvent.
Administration of test compounds: The test compounds were administered to mice by oronasal nebulization using a NAM system from DSI. Each mouse received a total volume of 400 µL, delivered in two nebulization sessions of 5 min each. The model group received an equal volume of vehicle by nebulization.
Newly received experimental animals were quarantined for 3 days and grouped as described above. Airway nebulized administration was performed using the NAM system, with the nebulization procedure consisting of 5-min nebulization (200 µL), a 3-min interval, and another 5-min nebulization (200 µL). Approximately 0.5 h after completion of nebulized administration, acetylcholine was nebulized using the RC system (15 mg/mL, 20 µL, 30 s, prepared in 0.9% normal saline) to challenge the animals to induce airway constriction, and changes in airway resistance (RL) were simultaneously measured using the RC instrument.

[6] = biological target: PDE4A1 (Homo sapiens, UniProt P27815); assay: PDE enzyme activity inhibition assay II (fluorescence polarization); details: read-out: IC50, nM PDE4A1; FP assay II, Table 5
Experimental: as §2, §3

[7] = biological target: PDE1C (Homo sapiens, UniProt Q14123); assay: as above; details: read-out: IC50, nM PDE1C; FP assay II, Table 5
Experimental: as §2, §3

[8] = biological target: PDE7A1 (Homo sapiens, UniProt Q13946); assay: as above; details: read-out: IC50, nM PDE7A1; FP assay II, Table 5
Experimental: as §2, §3

[9] = biological target: PDE1B (Homo sapiens, UniProt Q01064); assay: as above; details: read-out: IC50, nM PDE1B; FP assay II, Table 5
Experimental: as §2, §3

[10] = biological target: PDE1A (Homo sapiens, UniProt P54750); assay: as above; details: read-out: IC50, nM PDE1A; FP assay II, Table 5
Experimental: as §2, §3

[11] = biological target: PDE6C (Homo sapiens, UniProt P51160); assay: as above; details: read-out: IC50, nM PDE6C; FP assay II, Table 5
Experimental: as §2, §3

[12] = biological target: PDE4D3 (Homo sapiens, UniProt Q08499); assay: as above; details: read-out: IC50, nM PDE4D3; FP assay II, Table 5
Experimental: as §2, §3

[13] = biological target: PDE11A4 (Homo sapiens, UniProt Q9HCR9); assay: as above; details: read-out: IC50, nM PDE11A4; FP assay II, Table 5
Experimental: as §2, §3

[14] = biological target: PDE7B (Homo sapiens, UniProt Q9NP56); assay: as above; details: read-out: IC50, nM PDE7B; FP assay II, Table 5
Experimental: as §2, §3

[15] = biological target: PDE4C1 (Homo sapiens, UniProt Q08493); assay: as above; details: read-out: IC50, nM PDE4C1; FP assay II, Table 5
Experimental: as §2, §3

[16] = biological target: PDE4B1 (Homo sapiens, UniProt Q07343); assay: as above; details: read-out: IC50, nM PDE4B1; FP assay II, Table 5
Experimental: as §2, §3

[17] = biological target: PDE2A1 (Homo sapiens, UniProt O00408); assay: as above; details: read-out: IC50, nM PDE2A1; FP assay II, Table 5
Experimental: as §2, §3

[18] = biological target: PDE8A1 (Homo sapiens, UniProt O60658); assay: as above; details: read-out: IC50, nM PDE8A1; FP assay II, Table 5
Experimental: as §2, §3

[19] = biological target: PDE10A2 (Homo sapiens, UniProt Q9Y233); assay: as above; details: read-out: IC50, nM PDE10A2; FP assay II, Table 5
Experimental: as §2, §3

[20] = biological target: PDE10A1 (Homo sapiens, UniProt Q9Y233); assay: as above; details: read-out: IC50, nM PDE10A1; FP assay II, Table 5
Experimental: as §2, §3

[21] = biological target: PDE9A2 (Homo sapiens, UniProt O76083); assay: as above; details: read-out: IC50, nM PDE9A2; FP assay II, Table 5
Experimental: as §2, §3

[22] = biological target: PDE5A1 (Homo sapiens, UniProt O76074); assay: as above; details: read-out: IC50, nM PDE5A1; FP assay II, Table 5
Experimental: as §2, §3

| Structure (SMILES) | IC50 [1] | IC50 [2] | IC50 [3] | IC50 [4] | other results |
| --- | --- | --- | --- | --- | --- |
| COc1cc2c(cc1OC)-c1cc(N(c3c(C)cc(C)cc3C)C(C)CNC(N)=O)nc(=O)n1CC2 (single isomer, unassigned) [Compound 1-1] | 0.0698 nM | 61.4 nM | 75.4 nM | 0.0996 nM | Baseline value ([5]; airway resistance (RL), single animal, about 0.5 h after nebulized administration (14 mg/mL, 400 µL), before ACh challenge): 1.0 and 0.9 and 1.1; Inhibition (%) ([5]; inhibition of ACh challenge-induced increase of airway resistance, compound 14 mg/mL nebulized): 24.5%; Mean ([5]; mean of challenge-induced increase of airway resistance, 3 animals, compound 14 mg/mL): 8.0; IC50 [6]: 158 nM; IC50 [7]: 1770 nM; IC50 [8]: > 10000 nM; IC50 [9]: 616 nM; IC50 [10]: 4030 nM; IC50 [11]: 6210 nM; IC50 [12]: 252 nM; IC50 [13]: 3070 nM; IC50 [14]: > 10000 nM; IC50 [15]: 2160 nM; IC50 [16]: 820 nM; IC50 [17]: 1490 nM; IC50 [18]: 1800 nM; IC50 [19]: 40.3 nM; IC50 [20]: 59.9 nM; IC50 [21]: > 10000 nM; IC50 [22]: 5820 nM |
| COc1cc2c(cc1OC)-c1cc(N(c3c(C)cc(C)cc3C)C(C)CCNC(N)=O)nc(=O)n1CC2 (single isomer, unassigned) [Compound 3-1] | 0.103 nM | 227 nM | 187 nM | 0.0945 nM | – |
| COc1cc2c(cc1OC)-c1cc(N(c3c(C)cc(C)cc3C)C(C)CNC(=O)NC3CC3)nc(=O)n1CC2 (stereo not drawn) | 0.118 nM | 115 nM | 122 nM | 0.0822 nM | – |
| COc1cc2c(cc1OC)-c1cc(N(c3c(C)cc(C)cc3C)C(C)CNC(=O)c3[nH]nnc3C)nc(=O)n1CC2 (single isomer, unassigned) [Compound 12-2] | 0.0727 nM | 78.8 nM | 106 nM | 0.0691 nM | – |
| COc1cc2c(cc1OC)-c1cc(N(C(C)=O)c3c(C)cc(C)cc3C)nc(=O)n1CC2 | 2.89 nM | 669 nM | 1120 nM | 2.2 nM | – |
| COc1cc2c(cc1OC)-c1cc(N(c3c(C)cc(C)cc3C)C(C)CNC(=O)c3ccncn3)nc(=O)n1CC2 (stereo not drawn) | 0.169 nM | 108 nM | 152 nM | 0.101 nM | – |
| COc1cc2c(cc1OC)-c1cc(N(c3c(C)cc(C)cc3C)C3CC(NC(N)=O)C3)nc(=O)n1CC2 (single isomer, unassigned) [Compound 4-1] | > 40 nM | 490 nM | 469 nM | > 40 nM | – |
| COc1cc2c(cc1OC)-c1cc(N(c3c(C)cc(C)cc3C)C(C)CNC(=O)c3cnc[nH]3)nc(=O)n1CC2 (single isomer, unassigned) [Compound 13-1] | 0.158 nM | 5.84 nM | 9.78 nM | 0.112 nM | – |
| COc1cc2c(cc1OC)-c1cc(N(c3c(C)cc(C)cc3C)C(C)CNC(=O)c3ccccc3)nc(=O)n1CC2 (stereo not drawn) | 0.461 nM | 15.6 nM | 26.6 nM | 0.172 nM | – |
| COc1cc2c(cc1OC)-c1cc(N(c3c(C)cc(C)cc3C)C(C)CNC(=O)c3ccn[nH]3)nc(=O)n1CC2 (single isomer, unassigned) [Compound 11-2] | 0.1 nM | 157 nM | 155 nM | 0.0696 nM | – |
